In the assay the target is human CB2R (hCB2R) (Homo sapiens, UniProt P34972). The experiment in a line: Radioligand binding to membranes of CHO cells overexpressing hCB2R. Particulars: for Bmax: CHO-hCB2R membranes; for signal-to-background value: at 250 nM radioligand; for Kd: radioligand on CHO-hCB2R membranes, nonspecific with 10 μM WIN 55,212–2. As to the method: Figure 3 [^3H]-RNB-61 and [^14C]-RNB-61 to label CB2 receptors. (A) Concentration–response of membrane binding of [^3H]-RNB-61 and [^14C]-RNB-61 on CHO cells recombinantly expressing the human CB2R (hCB2R) (n = 4–6, Bmax = 8529 ± 477 cpm, Kd = 3.08 ± 0.61 nM for [^3H]-RNB-61 and Bmax = 76.5 ± 13.9 cpm, Kd = 3.62 ± 2.31 nM for [^14C]-RNB-61). The nonspecific binding was calculated by preincubating the cells with 10 μM of WIN 55,212–2. (B) The top image depicts four representative images of spleen slices incubated in 200 nM of [^14C] RNB-61. Images were acquired using the Typhoon FLA 9500 imaging system. The bottom plot depicts the radioactivity of spleen membrane preparations from either wild-type (WT) rat, WT mouse, or the CB2R knockout mouse strain (n = 6–13 spleen slices of 3 animals for each condition). […] (C) 17 different cell lines (CHO cells, immune cells, neuronal cells, miscellaneous cells) were incubated with 1 nM of [^3H]-RNB-61 and either vehicle or 1 μM of WIN55,212–2. The volcano plot depicts the difference between the vehicle and the WIN-treated cells on the x axis and the negative logarithm of the p-value on the y-axis. Only the hCB2 overexpressing CHO cells and immune cells were statistically significant in CB2R-specific labeling (p < 0.01). No significant labeling was detected in any of the neuronal cell lines (SHSY5Y, Neuro2a, NT18G2). (D) CB2R expression measured in cpm in ex vivo spleen slices from mice challenged with LPS detected with the administration of 200 nM [^14C]RNB-61. The bar chart depicts the specific signal, which was attained by subtracting the nonspecific signal (10 μM of WIN-55,212 co- incubation). LPS induced a statistically significant increase in CB2R expression at various time points (6–24h), which was completely absent in the CB2R KO mice. TEXT PRINTED IN THE PICTURE: (A) [^3H]-RNB-61: Bmax = 8529±477 cpm; Kd = 3.08±0.61 nM | (A) [^14C]-RNB-61: Bmax = 76.5±13.9 cpm; Kd = 3.62±2.31 nM

Chains of the proteins cited; added tags and fusions are not shown.
UniProt P34972, whole entry: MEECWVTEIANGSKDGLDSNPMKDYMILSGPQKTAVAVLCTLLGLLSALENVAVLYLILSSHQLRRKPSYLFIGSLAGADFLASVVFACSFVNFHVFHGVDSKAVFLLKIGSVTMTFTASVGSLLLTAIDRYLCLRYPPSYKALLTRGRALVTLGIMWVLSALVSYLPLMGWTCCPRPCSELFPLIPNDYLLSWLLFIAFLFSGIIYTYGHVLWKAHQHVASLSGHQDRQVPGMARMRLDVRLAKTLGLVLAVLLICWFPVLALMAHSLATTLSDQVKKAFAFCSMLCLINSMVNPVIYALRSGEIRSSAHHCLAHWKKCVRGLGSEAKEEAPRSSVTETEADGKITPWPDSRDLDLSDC

Values joined by “and” are separate entries in the source; they are usually repeats but may differ in a detail not shown here. Identical values can stand only once.

As to `CC(C)(O)COc1ccc(C(F)(F)F)cc1C(=O)N=c1cc(C(C)(C)C)n([14CH3])n1CC1CCC1`, the Bmax is 76.5 ± 13.9 cpm; the signal-to-background value amounted to 1.6; the dissociation constant (Kd) (commonly the free concentration of one partner at which half of the binding sites on the other are occupied at equilibrium, for simple one-to-one binding) is < 4 nM and 3.62 nM.

Turning to `[3H]C([3H])([3H])n1c(C(C)(C)C)cc(=NC(=O)c2cc(C(F)(F)F)ccc2OCC(C)(C)O)n1CC1CCC1`, the Bmax came out at 8529 ± 477 cpm; the signal-to-background value was found to be 6.0; the Kd was < 4 nM and 3.08 nM.

The record behind these values is paper PMC11320734 (ACS Pharmacology & Translational Science, 2024).
